# In patent publication US11478558B2, “Prostate-specific membrane antigen targeted high-affinity agents for endoradiotherapy of prostate cancer” (The Johns Hopkins University, priority 2017, dated 2022):
# By UniProt entry, the sequences of proteins in these tests, tags left out.
# UniProt Q04609, whole entry: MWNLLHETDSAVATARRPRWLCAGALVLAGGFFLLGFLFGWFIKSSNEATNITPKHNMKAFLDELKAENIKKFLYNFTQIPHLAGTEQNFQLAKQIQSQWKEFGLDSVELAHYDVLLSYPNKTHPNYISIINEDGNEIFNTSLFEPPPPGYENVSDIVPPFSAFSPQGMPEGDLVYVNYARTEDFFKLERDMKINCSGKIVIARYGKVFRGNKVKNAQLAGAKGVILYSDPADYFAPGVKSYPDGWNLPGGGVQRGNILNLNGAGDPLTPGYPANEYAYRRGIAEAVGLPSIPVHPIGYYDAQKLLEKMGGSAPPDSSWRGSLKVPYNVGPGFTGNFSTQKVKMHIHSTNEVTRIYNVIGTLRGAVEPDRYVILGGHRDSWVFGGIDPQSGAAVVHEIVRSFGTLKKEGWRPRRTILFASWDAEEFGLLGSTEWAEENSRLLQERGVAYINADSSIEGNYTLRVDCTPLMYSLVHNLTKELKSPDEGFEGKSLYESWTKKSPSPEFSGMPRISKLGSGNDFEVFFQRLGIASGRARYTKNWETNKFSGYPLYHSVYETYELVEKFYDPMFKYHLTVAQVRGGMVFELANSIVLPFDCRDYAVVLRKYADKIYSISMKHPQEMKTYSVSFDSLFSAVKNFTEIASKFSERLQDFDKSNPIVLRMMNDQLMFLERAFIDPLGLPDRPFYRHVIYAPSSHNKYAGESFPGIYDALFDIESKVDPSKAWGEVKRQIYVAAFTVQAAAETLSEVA
# Molecular target: PSMA (Homo sapiens (Human), UniProt Q04609)
# Experiment: PSMA binding affinity
# Settings: Table 6, given as range
smiles,measurement,value
O=C(O)CC[C@H](NC(=O)N[C@@H](CCCCN(Cc1ccc(Br)cc1)C(=O)[C@H]1CC[C@H](CNC(=O)CCC(C(=O)O)N2CCN(CC(=O)O)CCN(CC(=O)O)CCN(CC(=O)O)CC2)CC1)C(=O)O)C(=O)O (stereo partly shown),Ki,0.43 to 1.2 nM
